Laboratory results from patent US9320737B2, “Substituted imidazopyridazines” (Bayer Intellectual Property GmbH, priority 2011, dated 2016).

Amino acid sequences for entries named in this document (tags omitted). Chains listed by the source or under a name are the forms on record and can include a tag or linker.
UniProt Q9BUB5, other isoform, or with tags, fused parts or gaps T344D: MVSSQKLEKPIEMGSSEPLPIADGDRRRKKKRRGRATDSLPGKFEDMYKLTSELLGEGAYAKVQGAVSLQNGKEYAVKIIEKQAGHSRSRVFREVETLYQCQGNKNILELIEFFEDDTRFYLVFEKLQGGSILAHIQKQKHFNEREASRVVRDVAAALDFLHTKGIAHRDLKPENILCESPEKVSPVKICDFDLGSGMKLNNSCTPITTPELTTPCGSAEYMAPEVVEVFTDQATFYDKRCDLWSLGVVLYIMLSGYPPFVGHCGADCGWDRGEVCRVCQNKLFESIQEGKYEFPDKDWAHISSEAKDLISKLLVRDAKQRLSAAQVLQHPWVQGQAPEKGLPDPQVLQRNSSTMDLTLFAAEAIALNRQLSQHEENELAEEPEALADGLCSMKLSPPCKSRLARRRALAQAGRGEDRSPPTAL

Biological target: human full-length MKNK1 (Homo sapiens (Human), UniProt Q9BUB5, T344D)
Assay: MKNK1 kinase assay (MKNK1 TR-FRET assay)
Type: biochemical
Conditions: GST-MKNK1 (T344D), 10 μM ATP, average or median values
From the text: MKNK1-inhibitory activity of compounds of the present invention was quantified employing the MKNK1 TR-FRET assay as described in the following paragraphs.
A recombinant fusion protein of Glutathione-S-Transferase (GST, N-terminally) and human full-length MKNK1 (amino acids 1-424 and T344D of accession number BAA 19885.1), expressed in insect cells using baculovirus expression system and purified via glutathione sepharose affinity chromatography, was purchased from Carna Biosciences (product no 02-145) and used as enzyme. As substrate for the kinase reaction the biotinylated peptide biotin-Ahx-[…] (C-terminus in amide form) was used which can be purchased e.g. form the company Biosyntan (Berlin-Buch, Germany).
For the assay […] of a 100 fold concentrated solution of the test compound in DMSO was pipetted into a black low volume 384 well microtiter plate (Greiner Bio-One, Frickenhausen, Germany), 2 μL of a solution of MKNK1 in aqueous assay buffer [50 mM HEPES pH 7.5, 5 mM magnesium chloride, 1.0 mM dithiothreitol, 0.005% (v/v) Nonidet-P40 (Sigma)] was added and the mixture was incubated for 15 min at 22° C. to allow pre-binding of the test compounds to the enzyme before the start of the kinase reaction. Then the kinase reaction was started by the addition of 3 μL of a solution of adenosine-tri-phosphate (ATP, 16.7 μM=>final conc. in the 5 μL assay volume is 10 μM) and substrate (0.1 μM=>final conc. in the 5 μL assay volume is 0.06 μM) in assay buffer and the resulting mixture was incubated for a reaction time of 45 min at 22° C. The concentration of MKNK1 was adjusted depending of the activity of the enzyme lot and was chosen appropriate to have the assay in the linear range, typical concentrations were in the range of 0.05 μg/ml. The reaction was stopped by the addition of 5 μL of a solution of TR-FRET detection reagents (5 nM streptavidine-XL665 [Cisbio Bioassays, Codolet, France] and 1 nM anti-ribosomal protein S6 (pSer236)-antibody from Invitrogen [#44921G] and 1 nM LANCE EU-W1024 labeled ProteinG [Perkin-Elmer, product no. AD0071]) in an aqueous EDTA-solution (100 mM EDTA, 0.1% (w/v) bovine serum albumin in 50 mM HEPES pH 7.5).
The resulting mixture was incubated for 1 h at 22° C. to allow the formation of complex between the phosphorylated biotinylated peptide and the detection reagents. Subsequently the amount of phosphorylated substrate was evaluated by measurement of the resonance energy transfer from the Eu-chelate to the streptavidine-XL. Therefore, the fluorescence emissions at 620 nm and 665 nm after excitation at 350 nm were measured in a TR-FRET reader, e.g. a Rubystar (BMG Labtechnologies, Offenburg, Germany) or a Viewlux (Perkin-Elmer). […]

| Compound | IC50 [nM] |
| --- | --- |
| COc1cccc2oc(-c3cnc4ccc(OCCCS(C)(=N)=O)nn34)cc12 (stereo not shown) [Example IV.2, 3-(4-Methoxy-1-benzofuran-2-yl)-6-[3-(S-methylsulfonimidoyl)propoxy]imidazo-[1,2-b]pyridazine] | 2 |
| CS(=N)(=O)CCCCOc1ccc2ncc(-c3cc4ccccc4o3)n2n1 (stereo not shown) [Example IV.6, 3-(1-Benzofuran-2-yl)-6-[4-(S-methylsulfonimidoyl)butoxy]imidazo[1,2-b]pyridazine] | 8 |
| C[S+]([O-])CCOc1ccc2ncc(-c3cc4ccccc4o3)n2n1 (stereo not shown) [Example II.4, 3-(1-Benzofuran-2-yl)-6-[2-(methylsulfinyl)ethoxy]imidazo[1,2-b]pyridazine] | 10 |
| CS(=O)(CCCOc1ccc2ncc(-c3cc4ccccc4o3)n2n1)=NC(=O)C(F)(F)F (stereo not shown) [Example IV.3, N-[(3-{[3-(1-Benzofuran-2-yl)imidazo[1,2-b]pyridazin-6-yl]oxy}propyl)(methyl)oxido-lambda^6-sulfanylidene]-2,2,2-trifluoroacetamide] | 13 |
